Antibody variant affinities, Ab-14 heavy chain, assay B

Reference: Li et al. 2023, doi:10.1038/s41467-023-39022-2. File: FLAb, binding data.

Binding partner: SARS-CoV-2 spike HR2 peptide, sequence PDVDLGDISGINAS.

Parent scFv Ab-14: VH joined to VL by a (GGGGS)3 linker. Changes lie in the heavy chain CDRs alone.
VH: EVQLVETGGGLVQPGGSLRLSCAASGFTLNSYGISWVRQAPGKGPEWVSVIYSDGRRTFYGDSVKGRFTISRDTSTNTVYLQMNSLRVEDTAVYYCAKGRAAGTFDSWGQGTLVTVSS
VL: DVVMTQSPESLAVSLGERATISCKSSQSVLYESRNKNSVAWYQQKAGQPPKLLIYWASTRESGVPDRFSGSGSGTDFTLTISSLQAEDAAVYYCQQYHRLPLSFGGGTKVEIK

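These sequences belong to a second round, designed from the earlier measurements on random variants of the parent. Several design methods are mixed in this list. The assay is AlphaSeq: two haploid yeast populations carry antibody and antigen on their surface. Mating (16 h, 30 °C) was followed by selection of diploids and sequencing of their barcodes. Each replicate has its own calibration line, from reference interactions of the BCL2 family. The assay was run in six technical replicates.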

Each variant is given by its three heavy chain CDRs, as the data file delimits them; those of the parent are GFTLNSYGIS, VIYSDGRRTFYGDSVK, GRAAGTFDS. The Kd shown is the geometric mean over detected replicates; a lower Kd is a better binder. "nd" means that the variant was in the library but no mating with the target was seen in any replicate; the authors take this as a sign of poor binding, and no number exists. The parent sequence was in this pool as ten entries: three were never detected, three once, and four in most replicates, with averages from 2.2 nM to 240 nM. The authors' rule: three or more of the six replicates give a measured affinity, fewer mean a poor binder. Empty control strains, which show no peptide, gave a signal in 1% of pairings with all heavy chain designs; the median was 120 nM and 95% of these signals were weaker than 7.0 nM. No background was subtracted. The control count says in how many pairings with the empty strains this scFv gave a signal. The range of this assay differs from that of the first round, and the authors advise against merging the two.

nd (0 of 6 replicates; controls 1 of 18) for GFDLNDYGIS, VIYSDGRRTFYGDSVK, GKAAGTFDS.
4.0 nM (6 of 6 replicates; controls 0 of 18) for GFTLNSYGIS, VIYSDGRRTFYGDSVK, GEVAGTFDS.
7.2 nM (5 of 6 replicates; controls 2 of 18) for GFTLNSYGIS, VIYSDGRRTFYCDSVK, GKLAGTFDS.
16 nM (6 of 6 replicates; controls 0 of 18) for GFSLNNYGIS, VIYSDGRRTFYGDSVK, GVAAGTFDS.
nd (0 of 6 replicates; controls 2 of 18) for DFTLNSYGIS, VIYSDGRRTFYGDSVK, GRAAGTFDS.
4.0 nM (6 of 6 replicates; controls 0 of 18) for GFTLNSYGIS, VIYSDGRRTFYSDSVK, GRTGGTFDS.
nd (0 of 6 replicates; controls 1 of 18) for GFSLDEYGIS, VIYADGNRQEYIDDVK, GNYGGDFIE.
nd (0 of 6 replicates; controls 2 of 18) for GFNLDEEGIS, VIYADGIRTAYQDTVK, GQNVANFNV.
420 pM (6 of 6 replicates; controls 0 of 18) for GFTLNSYGIS, VIYSDGRRTFYSDSVK, GNEAGTFDS.
1.4 nM (6 of 6 replicates; controls 0 of 18) for GFTLNEYGIS, VIYSDGRRTFYGDSVK, GRTAGTFDK.
nd (0 of 6 replicates; controls 1 of 18) for GFDLNEYGIS, VIYADGTRKSYADNVK, GDYHSVVSY.
nd (0 of 6 replicates; controls 0 of 18) for GFTLNEYGIS, VIYSDGRDTFYGDCVK, GMAAVTFDQ.
nd (0 of 6 replicates; controls 0 of 18) for GYTLNSYGIS, VIYSDGRRTFYGDSVK, GRAAGTFDS.
26 nM (2 of 6 replicates; controls 0 of 18) for GFGLNSYGIS, VIYSDGRRTFYHDEVK, GRTAGTFDS.
980 pM (6 of 6 replicates; controls 0 of 18) for GFDLNEYGIS, VIYADGKRTFYTDSVK, GGNAGTFDS.
15 nM (6 of 6 replicates; controls 4 of 18) for GFTLNQYGIS, VIYSDGRRVFYGDSVK, GRAAGTFDS.
390 pM (6 of 6 replicates; controls 0 of 18) for GFSLNSYGIS, VIYADGRRTFYGDSVK, GQTAGTFDS.
3.2 nM (6 of 6 replicates; controls 0 of 18) for GFDLNEYGIS, VIYADGMRTFYADDVK, GNNAGTFDV.
210 pM (6 of 6 replicates; controls 0 of 18) for GFDLNEYGIS, VIYADGMRTAYVDDVK, GNNAGTFDI.
310 pM (6 of 6 replicates; controls 1 of 18) for GFDLEEYGIS, VIYADGKRTAYADSVK, GNQAGTFDV.
520 pM (6 of 6 replicates; controls 0 of 18) for GFDLNEYGIS, VIYADGRRTFYQDSVK, GQIAGTFDQ.
19 nM (1 of 6 replicates; controls 0 of 18) for GFDLNSYGIS, VIYSDGRRTFYVDSVK, GRSAGTFDS.
nd (0 of 6 replicates; controls 0 of 18) for GFTLNDYGIS, VIYSDGRRTQYIDSVK, GRAAGTFMS.
nd (0 of 6 replicates; controls 0 of 18) for GFDLNSYGIC, VIYSDGRRTYYGDSVK, GRAAGWFNS.
nd (0 of 6 replicates; controls 0 of 18) for GFTLNPYGIS, VIYSDGRRTQYIDSVK, GRCAGHFDS.
240 pM (6 of 6 replicates; controls 0 of 18) for GFDLNEYGIS, VIYADGMRTAYSDSVK, GQVAGTFDM.
1.8 nM (6 of 6 replicates; controls 2 of 18) for GFELNSYGIS, VIYSDGRRTFYHDSVK, GRLAGTFDS.
1.1 nM (6 of 6 replicates; controls 0 of 18) for GFSLNSYGIS, VIYSDGRRTFYQDDVK, GRTAGTFDS.
1.1 nM (6 of 6 replicates; controls 0 of 18) for GFDLNEYGIS, VIYADGMRTAYADSVK, GANAGTFDL.
590 pM (6 of 6 replicates; controls 1 of 18) for GFDLNEYGIS, VIYADGMRTAYTDSVK, GNNAGTFDI.
nd (0 of 6 replicates; controls 0 of 18) for TFTLNSYGIS, VIYSDGRRTFYGDSVV, GRAAGTFDS.
4.5 nM (6 of 6 replicates; controls 0 of 18) for GFSLNQYGIS, VIYSDGRRTFYKDSVK, GRAAGTFDS.
250 pM (6 of 6 replicates; controls 1 of 18) for GFDLNEYGIS, VIYADGMRTFYADSVK, GSNAGTFDM.
21 nM (6 of 6 replicates; controls 0 of 18) for GFTLNEYGIS, VIYSDGRRTMYGDSVK, GRHAGTFDS.
3.0 nM (6 of 6 replicates; controls 0 of 18) for GFDLNEYGIS, VIYADGMRTAYSDSVK, GNQAGTFDQ.
nd (0 of 6 replicates; controls 0 of 18) for GDNLDEYGIS, VIYADGQRTAYDDPVK, GGQTVTVMV.
500 pM (6 of 6 replicates; controls 0 of 18) for GFDLNEYGIS, VIYADGMRTYYADDVK, GENAGTFDV.
170 pM (6 of 6 replicates; controls 0 of 18) for GFDLNEYGIS, VIYADGMRQAYADSVK, GEVAGTFDV.
nd (0 of 6 replicates; controls 1 of 18) for GFNLNEYGIS, VIYADGNRNAYANSFK, GLHNNFFII.

For reference, 6 entries of the list once more:

GFELNSYGIS, VIYSDGRRTFYHDSVK, GRLAGTFDS: 1.8 nM (6 of 6 replicates; controls 2 of 18).
GFSLNNYGIS, VIYSDGRRTFYGDSVK, GVAAGTFDS: 16 nM (6 of 6 replicates; controls 0 of 18).
GFSLNSYGIS, VIYADGRRTFYGDSVK, GQTAGTFDS: 390 pM (6 of 6 replicates; controls 0 of 18).
GFDLNEYGIS, VIYADGKRTFYTDSVK, GGNAGTFDS: 980 pM (6 of 6 replicates; controls 0 of 18).
GFDLNEYGIS, VIYADGMRTFYADDVK, GNNAGTFDV: 3.2 nM (6 of 6 replicates; controls 0 of 18).
GFTLNEYGIS, VIYSDGRDTFYGDCVK, GMAAVTFDQ: nd (0 of 6 replicates; controls 0 of 18).